# Patent US5420335A, “Parenteral nutrients based on watersoluble glycerol bisacetoacetates” (priority 1993, dated 1995)
# “Also recorded” adds a separate entry of the source.
# Legend:
# Water solubility = conditions: in words
# [1] = Mortality and gross toxicity on intravenous infusion
# Procedure: Water was available ad libitum at all times.
# The vein was then ligated dorsally to the catheter. […] Body weights were measured daily.
substance,measurement,setting,value
Partially Reduced Pentaacetoacetyl-glucose [Compound 3],water solubility,Water solubility,completely miscible with water at all concentrations
same,mortality,"[1]; Example 7, 25 ml/day, half the initial rate",These rats also died
same,survival (two rats),"[1]; Example 7, 25 ml/day, pumping systems leaking",48 h
same,gross signs,"[1]; Example 7, initial rate","lack of urinary output; also recorded: Visible skin, feet and tail, of the rat were a bright red; also recorded: diffuse hemolysis of red blood cells"
same,mortality,"[1]; Example 7, initial rate, 6.77 grams per day as 13.5% solution i.v.",All 5 rats were dead within 24 hrs
same,blood sugar,"[1]; Example 7, two surviving rats, 25 ml/day, leaking pumps, glucose in urine",elevated blood sugar
same,lethality,"[1]; in words, conclusion",acutely lethal and toxic
